Reference: PubChem BioAssay AID1745845 (National Center for Advancing Translational Sciences (NCATS), 2022)
Only a part is listed here, and it is no random draw. Results filed as inconclusive are left out. Some salts and complexes are drawn in separate pieces, as the source files them; their charges need not balance. The source made the active and inactive calls. The call rests on the fitted dose curve; in most records, active means well fitted inhibition curve with a large enough effect; inconclusive means small, poorly fitted or top-dose-only effect; inactive means no such curve, though single readings can be large or run the other way.

Experiment: Primary qHTS for Inhibitors of ATXN expression; further: nearly all actives have a fitted effect of over 55% in size
Settings: HEK-293 ATXN2-luciferase reporter, luminescence, 24 h; series mostly up to 57 µM; activity change, negative = inhibition: at the top concentration
On the % scale 0 is the no-effect control and ±100 the full control effect; potency means the concentration at half of the fitted maximal effect.

SMILES | activity change, negative = inhibition | Potency
CCC(c1nnnn1C1CCCC1)N1CCC(n2c(=O)[nH]c3ccccc32)CC1 (stereo unspecified) | inactive: -14.6% | 
COc1ccc(C(=O)NCC2(N3CCCCC3)CCCCC2)c(OC)c1OC | inactive: -9.55% | 
COc1ccc(C(=O)NCC2(N3CCCCC3)CCCCC2)cc1 | inactive: -3.37% | 
CCCCn1nnnc1C(c1cccs1)N1CCC(n2c(=O)[nH]c3ccccc32)CC1 (stereo unspecified) | inactive: -34.2% | 
CCCCn1nnnc1C(CC)N1CCC(n2c(=O)[nH]c3ccccc32)CC1 (stereo unspecified) | inactive: -6.77% | 
O=C(NCC1(N2CCCCC2)CCCCC1)c1cccs1 | inactive: -16.5% | 
O=C(NCC1(N2CCCCC2)CCCCC1)c1ccc(=O)[nH]c1 | inactive: 5.42% | 
CCOC(=O)N1CCC(=O)CC1 | inactive: -2.62% | 
Cc1cccc(NC2(C#N)CCN(Cc3ccccc3)CC2)c1 | inactive: 3.15% | 
CSc1ccccc1C(=O)NCC1(N2CCCCC2)CCCCC1 | inactive: -13.6% | 
Cc1cc(C)cc(N(C(=O)c2ccccc2)C2CCN(C(=O)OC(C)(C)C)CC2)c1 | inactive: -25.8% | 
O=c1[nH]c2ccccc2n1C1CCN(C(c2ccccc2OC(F)(F)F)c2nnnn2C2CCCCC2)CC1 (stereo unspecified) | inactive: -2.48% | 
O=C(NCC1(N2CCCCC2)CCCCC1)c1ccc(Cl)nc1 | inactive: 23.5% | 
O=C(NCC1(N2CCOCC2)CCCCC1)c1cc2ccccc2o1 | inactive: 3.82% | 
O=C1C(O)=C([N+](=O)[O-])C(=O)C(O)=C1[N+](=O)[O-] | inactive: -4.07% | 
COc1ccc(Cl)cc1C(=O)NCC1(N2CCOCC2)CCCCC1 | inactive: -13.6% | 
O=c1[nH]c2ccccc2n1C1CCN(C(c2cc3ccccc3o2)c2nnnn2C2CCCCC2)CC1 (stereo unspecified) | inactive: -1.2% | 
O=C(OC1CN2CCC1CC2)C1c2ccccc2Oc2ccccc21 (stereo unspecified) | inactive: 0.586% | 
O=C(NCC1(N2CCCCC2)CCCCC1)c1ccc(Cl)s1 | inactive: -5.12% | 
CCCCn1nnnc1C(c1ccc(OC)cc1)N1CCC(n2c(=O)[nH]c3ccccc32)CC1 (stereo unspecified) | inactive: -30.4% | 
O=C1CCN(Cc2ccccc2)CC1 | inactive: -5.9% | 
CC(C)(C)n1nnnc1C(c1ccccc1)N1CCC(n2c(=O)[nH]c3ccccc32)CC1 (stereo unspecified) | inactive: -13.7% | 
O=C(NCC1(N2CCOCC2)CCCCC1)c1ccc(Cl)cc1 | inactive: -6.15% | 
CCOc1ccc(C)cc1CN(CCCl)CCCl | inactive: -22.1% | 
COc1ccccc1C(=O)NCC1(N2CCOCC2)CCCCC1 | inactive: -5.8% | 
CCOC(=O)N1CCC(Nc2ccc(F)cc2)CC1 | inactive: 1.77% | 

SMILES | activity change, negative = inhibition | Potency
COc1ccc(NC2CCN(CCc3ccccc3)CC2)c(OC)c1 | inactive: -4.68% | 
O=C(NCC1(N2CCCCC2)CCCCC1)c1ccc(F)cc1 | inactive: 6.21% | 
CCCCOc1ccc(C(=O)NCC2(N3CCOCC3)CCCCC2)cc1 | inactive: 4.94% | 
O=P1(N(CCCl)CCCl)SCCCS1 | inactive: 7.76% | 
CCOC(=O)C(=O)CBr | inactive: 15.8% | 
CCOC(=O)N1CCC(Nc2cccc(C)c2)CC1 | inactive: 3.39% | 
O=c1[nH]c2ccccc2n1C1CCN(C(c2cccc3ccccc23)c2nnnn2C2CCCC2)CC1 (stereo unspecified) | inactive: -24.2% | 
O=C(NCC1(N2CCCCC2)CCCCC1)c1ccc(OC(F)F)cc1 | inactive: -12.7% | 
N#CC1(Nc2ccccc2)CCN(CCc2ccccc2)CC1 | inactive: 5.57% | 
CCN1CCC(Nc2ccc(Cl)cc2)CC1 | inactive: 1.28% | 
CSc1ccc(C(=O)NCC2(N3CCOCC3)CCCCC2)cc1 | inactive: 7.84% | 
CCOc1ccc(C(=O)NCC2(N3CCOCC3)CCCCC2)cc1 | inactive: 7.86% | 
O=C(NCC1(N2CCCCC2)CCCCC1)c1cccc([N+](=O)[O-])c1 | inactive: -3.63% | 
O=C(NCC1(N2CCCCC2)CCCCC1)c1cccc(C(F)(F)F)c1 | inactive: -12.5% | 
O=C(NCC1(N2CCOCC2)CCCCC1)c1cc(=O)[nH]c2ccccc12 | inactive: 4.9% | 
COc1cc(C(=O)NCC2(N3CCCCC3)CCCCC2)ccc1OC(F)F | inactive: -10.7% | 
COc1ccc(NC2CCN(C(=O)OC(C)(C)C)CC2)cc1 | inactive: -28.3% | 
CC(C)c1ccc(C(=O)NCC2(N3CCOCC3)CCCCC2)cc1 | inactive: 23.8% | 
CN1CCN(CCOC(=O)C(O)(c2ccccc2)c2ccccc2)CC1 | inactive: -1.15% | 
CC(C)c1ccc(NC2CCN(C(=O)OC(C)(C)C)CC2)cc1 | inactive: 17.6% | 
CN(C)c1cccc(C(=O)NCC2(N3CCCCC3)CCCCC2)c1 | inactive: -3.39% | 
O=[N+]([O-])c1cc([N+](=O)[O-])c(OC2CCCCC2O)c([N+](=O)[O-])c1 (stereo unspecified) | inactive: -12.5% | 
COc1ccc(CN(CCCl)CCCl)cc1Cl | inactive: 4.02% | 
CCC(c1nnnn1C(C)(C)C)N1CCC(n2c(=O)[nH]c3ccccc32)CC1 (stereo unspecified) | inactive: -6.2% | 
COc1cc(OC)c(C(=O)NCC2(N(C)C)CCCCC2)cc1OC | inactive: 0.223% | 
O=C(OC1CN2CCC1CC2)c1ccc([N+](=O)[O-])cc1 (stereo unspecified) | inactive: 8.97% | 

SMILES | activity change, negative = inhibition | Potency
O=C(NCC1(N2CCCCC2)CCCCC1)c1cncc(Br)c1 | inactive: -0.378% | 
COc1ccc2c(c1O)-c1c(O)c(OC)cc3c1[C@H](C2)[N+](C)(C)CC3.O=[N+]([O-])c1cc([N+](=O)[O-])c([O-])c([N+](=O)[O-])c1[O-] | inactive: -1.45% | 
CN1CCC(Nc2cccc(F)c2)CC1 | inactive: 1.2% | 
COc1ccc(C(c2nnnn2C2CCCC2)N2CCC(n3c(=O)[nH]c4ccccc43)CC2)cc1 (stereo unspecified) | inactive: -25.3% | 
CCCOc1ccc(C(=O)NCC2(N(C)C)CCCCC2)cc1OC | inactive: 1.48% | 
O=C(NCC1(N2CCOCC2)CCCCC1)c1ccccc1Br | inactive: 5.25% | 
CCCCn1nnnc1C(c1ccccc1)N1CCC(n2c(=O)[nH]c3ccccc32)CC1 (stereo unspecified) | inactive: 0% | 
O=C(NCC1(N2CCOCC2)CCCCC1)c1cc(Br)ccc1Cl | inactive: -13.5% | 
CCC(=O)N(c1ccccc1)C1CCNCC1 | inactive: 5.61% | 
O=c1[nH]c2ccccc2n1C1CCN(C(c2cccs2)c2nnnn2C2CCCCC2)CC1 (stereo unspecified) |  | active: 31.6 µM
O=c1[nH]c2ccccc2n1C1CCN(C(c2ccnc3ccccc23)c2nnnn2C2CCCC2)CC1 (stereo unspecified) | inactive: 0% | 
CCOC(=O)N1CCC(Nc2ccc(C)cc2)CC1 | inactive: 0.201% | 
N/C(=N\O)c1c(N)no[n+]1[O-] | inactive: 3.83% | 
O=C(OC1CN2CCC1CC2)C1c2ccccc2C=Cc2ccccc21 (stereo unspecified) | inactive: 4.79% | 
CCc1cc(C(=O)NCC2(N3CCCCC3)CCCCC2)sc1C | inactive: -19.3% | 
O=C(NCC1(N2CCOCC2)CCCCC1)c1ccccc1[N+](=O)[O-] | inactive: 1.57% | 
N#Cc1ccc(C(=O)NCC2(N3CCCCC3)CCCCC2)cc1 | inactive: -25.5% | 
O=C(NCC1(N2CCOCC2)CCCCC1)c1ccc([N+](=O)[O-])cc1 | inactive: -2.01% | 
CC(C)(C)OC(=O)N1CCC(N(C(=O)c2ccccc2)c2ccc(Cl)cc2)CC1 | inactive: -9.01% | 
CCOC(=O)C(CC)C1=NC(C)(C)Cc2ccccc21.O=[N+]([O-])c1cc([N+](=O)[O-])c(O)c([N+](=O)[O-])c1 (stereo unspecified) | inactive: -3.87% | 
CN(C)C1(CNC(=O)c2cccc(C#N)c2)CCCCC1 | inactive: 28.5% | 
CCCN1CCC(Nc2cc(OC)cc(OC)c2)CC1 | inactive: -9.49% | 
O=C(NCC1(N2CCOCC2)CCCCC1)c1ccccc1 | inactive: -8.14% | 
c1ccc(CN2CCC(Nc3ccccc3)CC2)cc1 | inactive: 0.608% | 
CCC(c1nnnn1C1CCCCC1)N1CCC(n2c(=O)[nH]c3ccccc32)CC1 (stereo unspecified) | inactive: -4.38% | 
CC(=O)N(c1ccccc1)C1CCNCC1 | inactive: 2.44% | 

SMILES | activity change, negative = inhibition | Potency
COc1cccc(C(c2nnnn2C2CCCCC2)N2CCC(n3c(=O)[nH]c4ccccc43)CC2)c1OC (stereo unspecified) | inactive: 0% | 
CN(C)C1(CNC(=O)c2ccc(C(C)(C)C)cc2)CCCCC1 | inactive: -12.5% | 
COc1cc(OC)cc(C(=O)NCC2(N3CCCCC3)CCCCC2)c1 | inactive: -7.28% | 
Fc1ccccc1NC1CCN(Cc2ccccc2)CC1 | inactive: -1.63% | 
Cc1ccc(C(=O)NCC2(N3CCCCC3)CCCCC2)o1 | inactive: 3.37% | 
Cc1ccc(NC2(C#N)CCN(Cc3ccccc3)CC2)cc1 | inactive: 2.52% | 
CC(C)(C)n1nnnc1C(c1ccnc2ccccc12)N1CCC(n2c(=O)[nH]c3ccccc32)CC1 (stereo unspecified) | inactive: -16.4% | 
COc1ccc(C(c2nnnn2C2CCCCC2)N2CCC(n3c(=O)[nH]c4ccccc43)CC2)cc1 (stereo unspecified) | inactive: -7.67% | 
CCN1CCC(Nc2cccc(F)c2)CC1 | inactive: -1.35% | 
Cc1ccccc1NC1(C#N)CCN(Cc2ccccc2)CC1 | inactive: 0% | 
Cc1ccccc1C(=O)NCC1(N(C)C)CCCCC1 | inactive: -7.18% | 
CC(C)(C)c1ccc(C(=O)NCC2(N3CCOCC3)CCCCC2)cc1 | inactive: 13.8% | 
O=C(NCC1(N2CCCCC2)CCCCC1)c1ccco1 | inactive: -2.55% | 
CN1CCC(Nc2ccc(F)c(Cl)c2)CC1 | inactive: -11.6% | 
CCOc1ncccc1C(=O)NCC1(N2CCOCC2)CCCCC1 | inactive: 0.618% | 
NN(c1ccccc1)C1CCN(CCc2ccccc2)CC1 | inactive: -20.6% | 
CC(C)(C)OC(=O)N1CCC(Nc2ccccc2)CC1 | inactive: 0.231% | 
CCCOc1ccc(C(=O)NCC2(N(C)C)CCCCC2)cc1 | inactive: 0.23% | 
COc1cccc(C(=O)N(c2cc(C)cc(C)c2)C2CCN(C(=O)OC(C)(C)C)CC2)c1 | inactive: -12% | 
COc1cc(C(=O)NCC2(N3CCOCC3)CCCCC2)cc(OC)c1OC | inactive: 5.55% | 
COc1cccc(C(c2nnnn2C2CCCC2)N2CCC(n3c(=O)[nH]c4ccccc43)CC2)c1OC (stereo unspecified) | inactive: 0% | 
COc1cc(OC)cc(C(=O)NCC2(N3CCOCC3)CCCCC2)c1 | inactive: 1.41% | 
CCC(CO)(C(=O)OC1CN2CCC1CC2)c1ccccc1 (stereo unspecified) | inactive: 2.36% | 
